Reference: ChEMBL document CHEMBL3822429, “Identification of novel EZH2 inhibitors through pharmacophore-based virtual screening and biological assays” (Bioorg Med Chem Lett, 2016)

Legend:
[1] = system: DB; experiment: Antiproliferative activity against human DB cells expressing EZH2 mutant assessed as growth inhibition measured after 72 hrs by AlamaBlue assay; type: functional, cell-based
[2] = system: Toledo; experiment: Antiproliferative activity against human Toledo cells expressing wild-type EZH2 assessed as growth inhibition measured after 72 hrs by AlamaBlue assay; type: functional, cell-based

Structure (SMILES): COc1ccc2nc(Nc3nc(O)cc(CSc4nnnn4-c4ccccc4)n3)nc(C)c2c1
- inhibition [1]: Dose-dependent effect
- inhibition [2]: Dose-dependent effect
